The values that follow are results of earlier work, collected in patent US9682093B2, “Compositions and methods for treating or preventing metabolic syndrome disorders” (CHARLES R. DREW UNIVERSITY OF MEDICINE AND SCIENCE, priority 2012, dated 2017).

As usually defined, the Ki is the equilibrium dissociation constant of an inhibitor or competing ligand from its target.

Molecules are shown by their SMILES.

The series has as its target androgen receptor. As to conditions: cited from earlier work.

Turning to `CC(=O)Nc1ccc(OCC(C)(O)C(=O)Nc2ccc([N+](=O)[O-])c(C(F)(F)F)c2)cc1` (stereo not shown) [S-4], the Ki was 4 ± 0.7 nM.
